# Results: ChEMBL document CHEMBL2010677, “Anti-inflammatory and PPAR transactivational effects of secondary metabolites from the roots of Asarum sieboldii” (Bioorg Med Chem Lett, 2012)
# Tested on: HepG2
# Experiment: Transactivation of PPAR expressed in HepG2 cells after 20 hrs by luminescence assay
# Format: cell-based
row,SMILES,Activity
1,COc1cc([C@H]2OC[C@@H]3[C@H]2CO[C@H]3c2ccc3c(c2)OCO3)ccc1O [PLUVIATILOL],Dose-dependent effect
2,C/C=C\CC/C=C/C=C/C(=O)NCC(C)C,Dose-dependent effect
3,COc1cc([C@@H]2OC[C@@H]3[C@H]2CO[C@H]3c2ccc3c(c2)OCO3)ccc1O [PIPERITOL],Dose-dependent effect
4,COc1ccc([C@@H](O)[C@H](O)CO)cc1OC,Dose-dependent effect
5,COc1cc([C@H]2OC[C@H]3[C@@H]2CO[C@H]3c2ccc3c(c2)OCO3)cc(OC)c1O,Dose-dependent effect
6,CC(C)(O)C1=C[C@@H](O)[C@@](C)(O)CC1,Dose-dependent effect
